In US8207217B2, “Crystalline forms of the mono-sodium salt of D-isoglutamyl-D-tryptophan” (Apotex Technologies Inc, priority 2007, dated 2012):

Test: Solubility in water
Type: physicochemical
Protocol: A solution of D-isoglutamyl-D-tryptophan and sodium hydroxide in water is prepared by adding solid D-isoglutamyl-D-tryptophan to sodium hydroxide solution. […] Sodium hydroxide is chosen based on the convenience in obtaining sodium hydroxide solution, however other sodium bases such as sodium hydride, sodium carbonate, sodium bicarbonate can be used. These chemicals are obvious chemical equivalents to sodium hydroxide for step (a) of the process. In step (b), the solution is filtered to remove any particulates prior to proceeding to step (c).

## mono-sodium salt of D-isoglutamyl-D-tryptophan
  solubility in water: extremely soluble in water
